System: Caco-2 cells
Assay: In vitro permeability using Caco-2 cells
Assay type: in vitro ADME, human
Conditions: high permeability and poor solubility over the physiologic pH range

Compound: CC[C@H](C)C(=O)N1CCC(NC(=O)Nc2ccc(OC(F)(F)F)c(F)c2)CC1 [EC5026, (S)-1-(3-Fluoro-4-(trifluoromethoxy)phenyl)-3-(1-(2-methylbutanoyl)piperidin-4-yl)urea]
- Biopharmaceutics Classification System (BCS) class: BCS Class 2

Source: article PMC7917437 (Journal of Medicinal Chemistry, 2021)
